Calls of active or inactive are those of the source. The rule behind the calls is not given here.
Biological target: BCL2/BCL2L11 (Homo sapiens) (UniProt P10415+O43521)
Settings: MOLT-4, dose 0.1-1000 nM, time 4.0 hrs

By UniProt entry, the sequences of proteins in these tests, tags left out.
UniProt P10415, whole entry, looked up: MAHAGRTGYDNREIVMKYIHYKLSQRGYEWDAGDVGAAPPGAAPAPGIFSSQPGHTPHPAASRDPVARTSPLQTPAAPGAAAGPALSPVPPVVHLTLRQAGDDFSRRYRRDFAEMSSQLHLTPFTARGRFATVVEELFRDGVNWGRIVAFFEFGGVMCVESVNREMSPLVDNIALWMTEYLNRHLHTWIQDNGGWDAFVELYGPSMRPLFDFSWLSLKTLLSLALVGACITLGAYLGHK
UniProt O43521, whole entry, looked up: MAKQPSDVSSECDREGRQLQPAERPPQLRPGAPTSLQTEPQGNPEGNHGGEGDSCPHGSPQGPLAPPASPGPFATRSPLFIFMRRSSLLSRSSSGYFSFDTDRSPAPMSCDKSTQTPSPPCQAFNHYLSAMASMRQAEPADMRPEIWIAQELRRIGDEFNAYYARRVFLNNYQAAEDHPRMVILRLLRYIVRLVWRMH

Compound | inhibition
Cc1c(-c2ccc(N3CCc4cccc(C(=O)Nc5nc6ccccc6s5)c4C3)nc2C(=O)O)cnn1CC12CC3CC(CC(C3)C1)C2 | Active
CN(C)CC#Cc1ccc(OCCCc2sc(N3CCc4cccc(C(=O)Nc5nc6ccccc6s5)c4C3)nc2C(=O)O)c(F)c1 [A-1155463] | inactive
